Here are results for 1 molecule from ChEMBL document CHEMBL5584351.

By UniProt entry, the sequences of proteins in these tests, tags left out. Where a name states a change or a piece, a line headed by the entry shows the natural chain unless it says otherwise.
UniProt P41233: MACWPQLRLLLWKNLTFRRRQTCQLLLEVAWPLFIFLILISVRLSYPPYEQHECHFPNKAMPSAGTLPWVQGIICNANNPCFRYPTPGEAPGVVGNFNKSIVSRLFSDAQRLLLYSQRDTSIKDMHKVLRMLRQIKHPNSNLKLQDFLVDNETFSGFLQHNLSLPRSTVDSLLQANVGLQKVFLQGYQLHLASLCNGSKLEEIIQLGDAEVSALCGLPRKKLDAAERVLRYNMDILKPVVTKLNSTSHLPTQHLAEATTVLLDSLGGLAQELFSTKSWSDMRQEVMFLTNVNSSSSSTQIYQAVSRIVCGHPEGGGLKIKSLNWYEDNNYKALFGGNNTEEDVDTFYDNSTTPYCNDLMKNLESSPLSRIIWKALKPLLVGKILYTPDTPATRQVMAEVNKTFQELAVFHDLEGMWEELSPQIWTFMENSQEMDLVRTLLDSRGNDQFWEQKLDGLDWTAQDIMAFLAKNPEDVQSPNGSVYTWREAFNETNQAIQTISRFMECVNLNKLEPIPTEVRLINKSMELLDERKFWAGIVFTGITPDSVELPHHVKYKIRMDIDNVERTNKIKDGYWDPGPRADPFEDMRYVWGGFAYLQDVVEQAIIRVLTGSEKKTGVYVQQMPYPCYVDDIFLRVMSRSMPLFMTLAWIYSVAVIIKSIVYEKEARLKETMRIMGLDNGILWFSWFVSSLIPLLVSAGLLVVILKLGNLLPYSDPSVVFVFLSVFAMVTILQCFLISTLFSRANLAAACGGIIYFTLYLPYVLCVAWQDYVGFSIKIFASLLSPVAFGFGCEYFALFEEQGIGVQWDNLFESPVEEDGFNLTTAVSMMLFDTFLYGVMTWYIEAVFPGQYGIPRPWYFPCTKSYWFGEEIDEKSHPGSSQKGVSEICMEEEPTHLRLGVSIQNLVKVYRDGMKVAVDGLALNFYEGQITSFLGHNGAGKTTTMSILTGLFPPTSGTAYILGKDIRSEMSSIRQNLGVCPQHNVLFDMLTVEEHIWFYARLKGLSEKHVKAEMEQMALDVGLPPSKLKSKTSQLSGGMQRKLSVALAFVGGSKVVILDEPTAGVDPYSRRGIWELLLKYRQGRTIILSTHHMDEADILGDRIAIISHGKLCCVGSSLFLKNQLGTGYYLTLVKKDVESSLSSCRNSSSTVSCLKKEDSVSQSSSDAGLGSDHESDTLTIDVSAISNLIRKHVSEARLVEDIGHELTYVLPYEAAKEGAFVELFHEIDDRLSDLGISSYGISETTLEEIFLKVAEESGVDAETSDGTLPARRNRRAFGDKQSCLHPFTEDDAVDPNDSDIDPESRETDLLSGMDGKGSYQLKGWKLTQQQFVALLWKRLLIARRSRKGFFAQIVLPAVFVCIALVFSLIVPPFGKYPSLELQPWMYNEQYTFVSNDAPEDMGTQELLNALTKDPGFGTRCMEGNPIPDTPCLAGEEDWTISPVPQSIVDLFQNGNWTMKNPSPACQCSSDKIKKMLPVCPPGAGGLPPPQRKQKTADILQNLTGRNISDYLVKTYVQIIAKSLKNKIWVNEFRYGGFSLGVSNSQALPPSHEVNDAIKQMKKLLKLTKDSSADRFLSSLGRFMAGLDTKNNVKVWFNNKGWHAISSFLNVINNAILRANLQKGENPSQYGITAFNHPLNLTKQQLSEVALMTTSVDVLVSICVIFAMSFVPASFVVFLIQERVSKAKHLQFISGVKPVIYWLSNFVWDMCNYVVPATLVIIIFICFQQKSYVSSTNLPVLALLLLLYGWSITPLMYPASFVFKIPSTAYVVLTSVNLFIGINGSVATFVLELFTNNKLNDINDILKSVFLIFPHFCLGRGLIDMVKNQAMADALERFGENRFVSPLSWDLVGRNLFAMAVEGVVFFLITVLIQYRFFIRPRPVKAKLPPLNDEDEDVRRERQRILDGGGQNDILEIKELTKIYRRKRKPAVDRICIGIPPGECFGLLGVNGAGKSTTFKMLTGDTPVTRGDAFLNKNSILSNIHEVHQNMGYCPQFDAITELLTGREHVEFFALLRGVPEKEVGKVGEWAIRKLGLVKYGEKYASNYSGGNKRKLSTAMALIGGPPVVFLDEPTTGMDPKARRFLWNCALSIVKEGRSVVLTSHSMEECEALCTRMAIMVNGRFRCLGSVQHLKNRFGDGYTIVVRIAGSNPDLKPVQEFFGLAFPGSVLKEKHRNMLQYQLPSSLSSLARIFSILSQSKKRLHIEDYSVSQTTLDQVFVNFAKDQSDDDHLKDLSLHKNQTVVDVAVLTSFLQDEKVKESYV

Experiment [1] deals with Phospholipid-transporting ATPase ABCA1 (Mus musculus) (UniProt P41233). The experiment can be described thus: Activation of ABCA1 in mouse J774.2 cells assessed as increase in fluorescent-tagged cholesterol efflux incubated for 24 hrs by BODIPY based fluorescence analysis. The experiment is classed as cell-based. As to conditions: filed as activator.
For experiment [2] the target is unchanged. The experiment can be described thus: Activation of ABCA1 in mouse J774.2 cells assessed as increase in fluorescent-tagged cholesterol efflux at 10 uM incubated for 24 hrs in presence of ABCA1 inhibitor probucol by BODIPY based fluorescence analysis. The experiment is classed as cell-based.

The source made the active and inactive calls. No cut-off for these calls is given here.

In the case of `CCOC(=O)c1cc(Cl)cc(NC(=O)c2sc(Cl)cc2S(=O)(=O)N(C)c2ccc(OCC)c(OC)c2)c1`, the Activity result in experiment [1] is “Dose-Dependent Effect”. Further, the result in experiment [2] was inactive.
